We go through two compounds from patent publication US9089539B2 (Indiana University Research and Technology Corporation, priority 2008, dated 2015).

Sequences of proteins named here, by UniProt entry; tags and fusion partners are left off. Residues count along the entry.
UniProt P43220, 24-463, species assumed: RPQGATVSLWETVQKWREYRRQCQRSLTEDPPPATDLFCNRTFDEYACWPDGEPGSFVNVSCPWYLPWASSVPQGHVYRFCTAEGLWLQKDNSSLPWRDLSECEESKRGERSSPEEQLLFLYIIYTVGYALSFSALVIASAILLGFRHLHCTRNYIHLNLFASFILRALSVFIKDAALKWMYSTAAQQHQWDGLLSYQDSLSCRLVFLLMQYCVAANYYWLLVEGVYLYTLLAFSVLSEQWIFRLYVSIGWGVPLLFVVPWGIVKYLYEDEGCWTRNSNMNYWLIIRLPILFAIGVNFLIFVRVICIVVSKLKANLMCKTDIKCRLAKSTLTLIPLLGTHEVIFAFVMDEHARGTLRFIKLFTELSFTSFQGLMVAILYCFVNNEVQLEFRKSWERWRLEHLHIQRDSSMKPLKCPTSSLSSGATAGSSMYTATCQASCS

Data set [1] in a line: Cleavage of dipeptide-extended prodrugs on incubation in PBS (HPLC/MS). In kind it is physicochemical. The following applies: pH 7.2. On the procedure:
Preliminary analyses were performed with these crude peptides to get an approximation of their relative conversion rates in Phosphate Buffered Saline (PBS) buffer (pH, 7.2) using high performance liquid chromatography (HPLC) and MALDI analysis. The crude peptide samples were dissolved in the PBS buffer at a concentration of 1 mg/ml. 1 ml of the resulting solution was stored in a 1.5 ml HPLC vial which was then sealed and incubated at 37° C. Aliquots of 100 μl were drawn out at various time intervals, cooled to room temperature and analyzed by HPLC.
HPLC analyses were performed on a 150 mm×4.6 mm C18 Vydac column. The flow rate was 1 ml/min. […] A linear gradient was employed (40% to 70% B in 15 minutes).
Alternatively, each peptide was heated for 120 min at 100° C. to accelerate the amide bond cleavage. Cleavage of the prodrugs was analyzed by reverse phase HPLC and MS.
The peptide was also heated at 100° C. to determine the susceptibility to cleavage (Table 4).

The target in the next data set is GLP-1 receptor (Homo sapiens, UniProt P43220). Description: Luciferase-based reporter gene assay for cAMP detection, GLP-1 receptor. The following applies: incubation in PBS for a week; listed as Analog 5. (In a reporter assay the amount or activity of a reporter protein is the signal.)

For orientation: half-life means how long it takes for the measured level to halve. As to `CC[C@H](C)[C@H](NC(=O)[C@H](Cc1ccccc1)NC(=O)[C@H](CCC(=O)O)NC(=O)[C@H](CCCCN)NC(=O)[C@H](C)NC(=O)[C@H](C)NC(=O)[C@H](CCC(N)=O)NC(=O)CNC(=O)[C@H](CCC(=O)O)NC(=O)[C@H](CC(C)C)NC(=O)[C@H](Cc1ccc(O)cc1)NC(=O)[C@H](CO)NC(=O)[C@H](CO)NC(=O)[C@@H](NC(=O)[C@H](CC(=O)O)NC(=O)[C@H](CO)NC(=O)[C@@H](NC(=O)[C@H](Cc1ccccc1)NC(=O)[C@@H](NC(=O)CNC(=O)[C@H](CCC(=O)O)NC(=O)[C@H](C)NC(=O)[C@H](Cc1ccccc1)OC(=O)[C@@H](NC(=O)[C@@H](N)Cc1ccccc1)C(C)C)[C@@H](C)O)[C@@H](C)O)C(C)C)C(=O)N[C@@H](C)C(=O)N[C@@H](Cc1c[nH]c2ccccc12)C(=O)N[C@@H](CC(C)C)C(=O)N[C@H](C(=O)N[C@@H](CCCCN)C(=O)NCC(=O)NCC(=O)N1CCC[C@H]1C(=O)N[C@@H](CO)C(=O)N[C@@H](CO)C(=O)NCC(=O)N[C@@H](C)C(=O)N1CCC[C@H]1C(=O)N1CCC[C@H]1C(=O)N1CCC[C@H]1C(=O)N[C@@H](CO)C(N)=O)C(C)C` [Peptide 10], in data set [1], the half-life was 64 h.
Consider `CC[C@H](C)[C@H](NC(=O)[C@H](Cc1ccccc1)NC(=O)[C@H](CCC(=O)O)NC(=O)[C@H](CCCCN)NC(=O)[C@H](C)NC(=O)[C@H](C)NC(=O)[C@H](CCC(N)=O)NC(=O)CNC(=O)[C@H](CCC(=O)O)NC(=O)[C@H](CC(C)C)NC(=O)[C@H](Cc1ccc(O)cc1)NC(=O)[C@H](CO)NC(=O)[C@H](CO)NC(=O)[C@@H](NC(=O)[C@H](CC(=O)O)NC(=O)[C@H](CO)NC(=O)[C@@H](NC(=O)[C@H](Cc1ccccc1)NC(=O)[C@@H](NC(=O)CNC(=O)[C@H](CCC(=O)O)NC(=O)[C@H](C)NC(=O)[C@H](Cc1ccccc1)OC(=O)[C@@H](NC(=O)CN)C(C)C)[C@@H](C)O)[C@@H](C)O)C(C)C)C(=O)N[C@@H](C)C(=O)N[C@@H](Cc1c[nH]c2ccccc12)C(=O)N[C@@H](CC(C)C)C(=O)N[C@H](C(=O)N[C@@H](CCCCN)C(=O)NCC(=O)NCC(=O)N1CCC[C@H]1C(=O)N[C@@H](CO)C(=O)N[C@@H](CO)C(=O)NCC(=O)N[C@@H](C)C(=O)N1CCC[C@H]1C(=O)N1CCC[C@H]1C(=O)N1CCC[C@H]1C(=O)N[C@@H](CO)C(N)=O)C(C)C` [Compound 10], for which the potency after incubation entry on GLP-1 receptor is recorded as “potency converted close to that of the parent drug”.
